Measured values reported in article PMC9545474, “Anticancer Water‐Soluble Organoruthenium Complexes: Synthesis and Preclinical Evaluation” (Chembiochem, 2022).

Legend:
[1] = system: A2780cisR subcutaneous tumour xenograft; assay: Efficacy in A2780cisR (A2780/cis) subcutaneous tumour xenograft model; format: in vivo, Female Balb/c immunodeficient nude mice; details: 6 at 50 mg/kg, 8 at 15 mg/kg, i.p.
Description: (§1) Compounds: All compounds were provided in powdered form and stored in the −20 °C freezer. They were formulated just before use. […] The drugs were then administered within 10 minutes of initial dilution.
(§2) Animals: Female Balb/c immunodeficient nude mice aged 6–12 weeks were used (Envigo, Blackthorn, UK). Mice were kept in cages housed in isolation cabinets in an air‐conditioned room with regular alternating cycles of light and darkness. They received Teklad 2018 diet (Envigo, Blackthorn, UK) and water ad libitum. […]
(§3) S.c. xenograft tumours: A2780/WT and A2780/cis tumours were excised from a donor animal, placed in sterile physiological saline containing antibiotics and cut into small fragments of approximately 5 mm^3. […] Once the tumours could accurately be measured by callipers, the mice were allocated into groups (control or treated) by restricted randomisation to keep group mean tumour size variation to a minimum, with 3 animals set up per group. […]
(§4) The effects of therapy were assessed by frequent monitoring growth of the tumours and body weight. Two‐dimensional calliper measurements of the tumours were taken, and volumes calculated using the formula (a^2×b)/2, where a is the smaller and b the larger diameter of the tumour. […]

[2] = mice; for Toxicity in MTD run: i.p.
Description: as §1
Animals: Female Balb/c immunodeficient nude mice aged 6–12 weeks were used (Envigo, Blackthorn, UK). Mice were kept in cages housed in isolation cabinets in an air‐conditioned room with regular alternating cycles of light and darkness. They received Teklad 2018 diet (Envigo, Blackthorn, UK) and water ad libitum. All animal procedures were carried out under a project licence issued by the UK Home Office and UK National Cancer Research Institute Guidelines for the Welfare of Animals were followed throughout.
(1 picture or pasted object on this page, not shown here)

[3] = system: A2780 subcutaneous tumour xenograft; assay: Efficacy in A2780 subcutaneous tumour xenograft model; format: in vivo, Female Balb/c immunodeficient nude mice; details: 6 at 50 mg/kg, 8 at 15 mg/kg, i.p.
Description: as §1, §2, §3, §4

(η^6‐p‐cymene)(TPPTS)Ru(Mnt) [Complex 6]
Toxicity in xenograft study [1]: No toxicity was observed | maximum tolerated dose (MTD) ([2]; i.p. daily, monitored for a further two weeks): 50 mg/kg | Toxicity in MTD run ([2]; 20mg/kg, run 2): no toxicity was observed | Toxicity in MTD run ([2]; 50mg/kg/dose, whole schedule, final run): No evidence of toxicity was seen | Toxicity in xenograft study [3]: No toxicity was observed

Where two headings read alike, the source gives them in different places.
